# Membrane permeability of cyclic peptides

PAMPA is the parallel artificial membrane permeability assay, which has no cells and reads passive diffusion. Permeability is given as log10 of P in cm/s; higher (less negative) is more permeable.

structure (SMILES),PAMPA (log10 cm/s)
CC(C)C[C@@H]1NC(=O)[C@@H](CC(C)C)N(C)C(=O)C[C@H](Cc2ccccc2)NC(=O)[C@H](Cc2ccccc2)NC(=O)[C@@H](CC(C)C)NC(=O)[C@@H]2CCCN2C1=O,-5.37
CC(C)C[C@H]1NC(=O)[C@@H]2CCCN2C(=O)[C@@H](CC(C)C)NC(=O)[C@H](CC(C)C)N(C)C(=O)[C@H](C)N(C)C(=O)[C@H](Cc2ccccc2)NC1=O,-4.88
CCCN1CC(=O)N[C@H](CC(C)C)C(=O)N[C@H](CC(C)C)C(=O)N2CCC[C@@H]2C(=O)N[C@@H](CC(C)C)C(=O)N[C@@H](Cc2ccccc2)C(=O)N2CCC[C@@H]2C1=O,-6.13
CC(C)C[C@H]1C(=O)N[C@@H](Cc2ccccc2)CC(=O)N2CCC[C@H]2C(=O)N(C)[C@@H](CC(C)C)C(=O)N[C@@H](Cc2ccccc2)C(=O)N2CCC[C@@H]2C(=O)N[C@H](C)C(=O)N1C,-5.04
CCCN1CC(=O)N(C)[C@H](CC(C)C)C(=O)N(C)[C@@H](CC(C)C)C(=O)N2CCC[C@@H]2C(=O)N(Cc2ccccc2)CC(=O)N[C@@H](Cc2ccccc2)C(=O)N2CCC[C@@H]2C1=O,-5.10
CCCN1CC(=O)N[C@@H](CC(C)C)C(=O)N(C)[C@H](CC(C)C)C(=O)N2CCC[C@H]2C(=O)N(Cc2ccccc2)CC(=O)N[C@@H](Cc2ccccc2)C(=O)N2CCC[C@H]2C1=O,-5.83
CC(C)C[C@@H]1C(=O)N2CCC[C@H]2C(=O)N(C)[C@@H](CC(C)C)C(=O)N[C@@H](Cc2ccccc2)C(=O)N2CCC[C@@H]2C(=O)N[C@H](C)C(=O)N(C)[C@@H](CC(C)C)C(=O)N1C,-5.23
CC(C)C[C@@H]1NC(=O)[C@H](C)N(C)C(=O)[C@H]2CCCN2C(=O)[C@H](Cc2ccccc2)NC(=O)[C@H](CC(C)C)N(C)C(=O)[C@H]2CCCN2C(=O)CN(Cc2ccccc2)C1=O,-5.89
CC(C)C[C@@H]1C(=O)N[C@@H](Cc2ccccc2)C(=O)N2CCC[C@@H]2C(=O)N[C@H](C)C(=O)N(C)[C@@H](CC(C)C)C(=O)N[C@H](CC(C)C)C(=O)N2CCC[C@H]2C(=O)N1C,-5.11
CC(C)C[C@@H]1NC(=O)[C@H](C)NC(=O)[C@H]2CCCN2C(=O)[C@H](Cc2ccccc2)NC(=O)[C@@H](CC(C)C)N(C)C(=O)[C@H]2CCCN2C(=O)[C@@H](CC(C)C)N(C)C1=O,-5.98
CC(C)C[C@@H]1C(=O)N[C@@H](Cc2ccccc2)C(=O)N[C@@H](Cc2ccccc2)CC(=O)N(C)[C@@H](CC(C)C)C(=O)N(C)[C@@H](CC(C)C)C(=O)N2CCC[C@@H]2C(=O)N1C,-5.21
CC(C)C[C@H]1NC(=O)[C@H]2CCCN2C(=O)CN(Cc2ccccc2)C(=O)[C@@H](CC(C)C)NC(=O)C[C@H](Cc2ccccc2)NC(=O)[C@H]2CCCN2C(=O)[C@H](Cc2ccccc2)NC1=O,-5.78
CC(C)C[C@H]1NC(=O)[C@H]2CCCN2C(=O)C[C@H](Cc2ccccc2)NC(=O)[C@H](CC(C)C)N(C)C(=O)[C@@H](C)NC(=O)[C@H](Cc2ccccc2)NC1=O,-5.54
CCCN1CC(=O)N[C@@H](CC(C)C)C(=O)N[C@H](CC(C)C)C(=O)N2CCC[C@@H]2C(=O)N[C@H](CC(C)C)C(=O)N[C@@H](Cc2ccccc2)C(=O)N2CCC[C@@H]2C1=O,-5.82
CC(C)C[C@@H]1C(=O)N[C@@H](Cc2ccccc2)C(=O)N[C@@H](Cc2ccccc2)CC(=O)N(C)[C@@H](CC(C)C)C(=O)N(C)[C@H](CC(C)C)C(=O)N2CCC[C@@H]2C(=O)N1C,-5.24
CC(C)C[C@@H]1C(=O)N(Cc2ccccc2)CC(=O)N2CCC[C@@H]2C(=O)N(C)[C@@H](CC(C)C)C(=O)N[C@@H](Cc2ccccc2)C(=O)N[C@H](C)C(=O)N1C,-5.00
CC(C)C[C@@H]1NC(=O)[C@@H]2CCCN2C(=O)[C@@H](CC(C)C)N(C)C(=O)[C@@H](CC(C)C)N(C)C(=O)[C@H](C)NC(=O)[C@H](Cc2ccccc2)NC1=O,-5.41
CC(C)C[C@@H]1C(=O)N[C@@H](Cc2ccccc2)CC(=O)N2CCC[C@@H]2C(=O)N[C@H](CC(C)C)C(=O)N[C@@H](Cc2ccccc2)C(=O)N[C@@H](C)C(=O)N1C,-6.27
CC(C)C[C@@H]1NC(=O)[C@H]2CCCN2C(=O)[C@@H](CC(C)C)N(C)C(=O)[C@@H](CC(C)C)NC(=O)[C@@H](C)N(C)C(=O)[C@H]2CCCN2C(=O)[C@H](Cc2ccccc2)NC1=O,-7.46
CCCN1CC(=O)N(Cc2ccccc2)CC(=O)N[C@@H](CC(C)C)C(=O)N2CCC[C@@H]2C(=O)N(C)[C@H](CC(C)C)C(=O)N[C@@H](Cc2ccccc2)C(=O)N2CCC[C@H]2C1=O,-5.71
CC(C)C[C@@H]1NC(=O)[C@H](CC(C)C)N(C)C(=O)C[C@H](Cc2ccccc2)NC(=O)[C@H]2CCCN2C(=O)[C@H](Cc2ccccc2)NC(=O)[C@@H](CC(C)C)NC(=O)[C@H]2CCCN2C1=O,-5.26
CC(C)C[C@@H]1C(=O)N[C@@H](Cc2ccccc2)C(=O)N2CCC[C@H]2C(=O)N[C@@H](C)C(=O)N(C)[C@@H](CC(C)C)C(=O)N[C@H](CC(C)C)C(=O)N2CCC[C@H]2C(=O)N1C,-5.06
CC(C)C[C@@H]1NC(=O)[C@@H](CC(C)C)NC(=O)[C@H](C)N(C)C(=O)[C@H](Cc2ccccc2)NC(=O)[C@@H](CC(C)C)N(C)C(=O)[C@@H]2CCCN2C1=O,-5.13

Excerpt, the final 2 entries:

structure (SMILES),PAMPA (log10 cm/s)
CC(C)C[C@@H]1C(=O)N[C@@H](Cc2ccccc2)C(=O)N2CCC[C@H]2C(=O)N[C@@H](C)C(=O)N(C)[C@@H](CC(C)C)C(=O)N[C@H](CC(C)C)C(=O)N2CCC[C@H]2C(=O)N1C,-5.06
CC(C)C[C@@H]1NC(=O)[C@@H](CC(C)C)NC(=O)[C@H](C)N(C)C(=O)[C@H](Cc2ccccc2)NC(=O)[C@@H](CC(C)C)N(C)C(=O)[C@@H]2CCCN2C1=O,-5.13

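The data file gives no further conditions (lipid, pH, time, direction or concentration), and values from different papers need not be comparable. Other peptides of the study may be missing here. Peptides that the database sets to -10, its floor, are left out.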

Source: CycPeptMPDB (Li et al. 2023), which took these values from Townsend et al. 2020, doi:10.26434/chemrxiv.13335941.v1.